BindingDB's records for patent US10231967 (AstraZeneca, 2019)

By UniProt entry, the sequences of proteins in these tests, tags left out.
UniProt P05067, whole entry: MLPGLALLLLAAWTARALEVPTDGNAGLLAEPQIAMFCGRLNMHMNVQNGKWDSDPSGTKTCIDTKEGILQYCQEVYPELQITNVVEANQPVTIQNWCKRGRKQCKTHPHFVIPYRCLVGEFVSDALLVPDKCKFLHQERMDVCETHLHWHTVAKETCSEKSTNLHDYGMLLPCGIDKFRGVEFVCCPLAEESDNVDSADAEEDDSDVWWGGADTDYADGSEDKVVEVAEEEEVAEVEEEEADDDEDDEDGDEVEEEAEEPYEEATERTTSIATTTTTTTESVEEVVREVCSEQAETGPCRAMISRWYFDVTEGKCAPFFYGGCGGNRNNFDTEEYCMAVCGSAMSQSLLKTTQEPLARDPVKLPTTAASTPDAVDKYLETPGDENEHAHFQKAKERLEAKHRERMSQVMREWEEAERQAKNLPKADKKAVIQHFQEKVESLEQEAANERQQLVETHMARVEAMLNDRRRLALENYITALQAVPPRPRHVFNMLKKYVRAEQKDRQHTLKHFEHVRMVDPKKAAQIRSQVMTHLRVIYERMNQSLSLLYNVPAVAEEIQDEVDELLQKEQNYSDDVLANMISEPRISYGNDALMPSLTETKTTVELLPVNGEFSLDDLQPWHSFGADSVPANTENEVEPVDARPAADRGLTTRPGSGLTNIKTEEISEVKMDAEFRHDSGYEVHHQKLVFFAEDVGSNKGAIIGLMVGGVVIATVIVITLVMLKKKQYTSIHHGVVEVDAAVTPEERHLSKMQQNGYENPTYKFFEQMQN

Molecular target: Amyloid-beta precursor protein (Homo sapiens, UniProt P05067)
Assay: sAPPbeta Release Assay
Description: Thaw cells and seed at a conc. of around 10000 cells/well in DMEM/F-12 with Glutamax, 10% FCS and 1% non-essential amino acids to a 384-well tissue culture treated plate, 100 μL cell susp/well. […] The cell medium was removed, followed by addition of 30 μL compound diluted in DMEM/F-12 with Glutamax, 10% FCS, 1% non-essential amino acids and 1% PeSt to a final conc. of 1% DMSO. The compounds were incubated with the cells for 17 h (overnight) at 37° C., 5% CO2. Meso Scale Discovery (MSD) plates were used for the detection of sAPPβ release. MSD sAPPβ plates were blocked in 1% BSA in Tris wash buffer (40 μL/well) for 1 h on shake at r.t. and washed 1 time in Tris wash buffer (40 μL/well). 20 μL of medium was transferred to the pre-blocked and washed MSD sAPPβ microplates, and the cell plates were further used in an ATP assay to measure cytotoxicity. The MSD plates were incubated with shaking at r.t. for 2 h and the media discarded. 10 μL detection antibody was added (1 nM) per well followed by incubation with shaking at r.t. for 2 h and then discarded. 40 μL Read Buffer was added per well and the plates were read in a SECTOR Imager.

IC50 [nM]	SMILES
0.26	CO[C@H]1CC[C@]2(CC1)Cc1ccc(-c3cc(Cl)cc(C#N)c3)cc1C21N=C(C)C(N)=N1 (some centres not stated) [US10231967, Example 125]
0.57	CO[C@H]1CC[C@]2(CC1)Cc1ccc(-c3cncc(Cl)c3)cc1C21N=C(C)C(N)=N1 (some centres not stated) [US10231967, Example 119]
